## AlphaSeq binding of Ab-14 light chain variants to a spike HR2 peptide

Target peptide (SARS-CoV-2 spike, HR2 region): PDVDLGDISGINAS

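The starting antibody came from a phage panning campaign against this peptide. The variants were designed computationally from a first round of random CDR variants and then made and measured. Their group label is 14L_GP_Gen (GP: Gaussian process model; Gen: genetic algorithm; a sequence that several methods proposed may carry one label only). Affinity was read by AlphaSeq, a pooled yeast mating assay with surface-displayed partners. Mating (16 h, 30 °C) was followed by selection of diploids and sequencing of their barcodes. Each replicate has its own calibration line, from reference interactions of the BCL2 family. Mating was done six times.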

Each scFv is VH, three GGGGS repeats, VL, as in the parent Ab-14, and differs from it in the CDRs of the light chain only.
VH: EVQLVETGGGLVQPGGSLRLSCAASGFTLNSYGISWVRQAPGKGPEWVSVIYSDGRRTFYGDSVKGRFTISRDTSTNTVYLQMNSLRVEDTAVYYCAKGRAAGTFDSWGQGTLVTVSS
VL: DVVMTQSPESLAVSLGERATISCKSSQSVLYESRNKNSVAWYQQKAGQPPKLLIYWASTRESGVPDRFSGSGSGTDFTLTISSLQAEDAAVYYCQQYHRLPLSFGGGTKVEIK

Changes read parent residue, position, new residue, counted from the first residue of the VL shown. The read-out is the apparent dissociation constant on a log10 scale (nM): the lower, the stronger. Three control strains display no target. For all light chain designs, 4% of the pairings with them gave a signal, with a median of 2.64 and one signal in twenty below 1.59, so weak values seen in few replicates may be background. For each scFv, signals with the empty controls are counted beside the result, with their mean in brackets. In the paper, a design with two or fewer of six values counts as a poor binder. The parent sequence was in this pool as ten entries: three were never detected, three once, and four in most replicates, with averages from 0.34 to 2.37. Values of this round are not directly comparable with the first-round values of the same sequences.

changes	replicates, log10 nM	control signals
S25F+V29W+W56D	0.13 -0.18 -0.11 -0.25 -0.33 0.00	2 of 18 (2.42)
S25L+S26Q+V29E+W56H+T59Q	0.65 1.16 0.63 0.62 1.08 1.07	1 of 18 (2.90)
S25L+V29H+W56H+E61L	1.06 0.74 1.18 0.74 0.49 1.05	0 of 18
S25L+S26P+V29H+S38A+W56Q	-0.02 -0.07 -0.15 -0.09 0.09 -0.06	0 of 18
S25L+S33W+W56N+T59Q	0.92 1.24 1.25 1.16 0.78 0.98	0 of 18
S25L+V29D+N35Q+W56N	0.66 0.47 0.31 0.43 0.35 0.60	4 of 18 (3.09)
S25V+W56Q+A57G	0.16 -0.12 -0.11 -0.28 -0.22 0.00	1 of 18 (2.65)
S25L+V29D+L30G+W56D	-0.11 -0.16 -0.28 -0.43 -0.19 -0.24	1 of 18 (3.19)
S25V+V29E+W56N	-0.23 -0.57 -0.46 -0.61 -0.72 -0.37	3 of 18 (2.66)
S25L+S26Q+V29E+N35M+W56N	0.12 0.27 0.16 -0.24 -0.08 0.15	1 of 18 (3.15)
S25L+K36S+W56N+E61L	-0.07 -0.02 -0.02 -0.21 -0.09 -0.02	1 of 18 (2.57)
S25L+V29F+W56N+S62Q	-0.35 -0.46 -0.48 -0.37 -0.54 -0.30	1 of 18 (3.21)
S25L+V29H+W56E+Q96D	0.23 -0.01 0.08 -0.03 -0.01 0.11	0 of 18
S25L+V29D+Y31M+W56N	0.25 -0.19 -0.07 -0.49 0.15 0.17	0 of 18
S25L+V29D+W56N+T59E	0.24 0.32 -0.07 -0.18 -0.13 0.23	0 of 18
S25L+V29K+W56G	0.25 0.47 0.33 0.19 0.49 0.70	0 of 18
S25L+L30M+W56E+S62V	0.00 -0.07 -0.04 -0.18 -0.12 -0.04	0 of 18
S25V+V29W+W56N+T59Q+S62Q	-0.18 -0.20 -0.34 -0.27 -0.26 0.07	3 of 18 (3.33)
S25L+S26E+W56N+T59E	-0.23 -0.28 -0.29 -0.38 -0.34 -0.20	1 of 18 (2.07)
S25L+V29Y+S38N+W56H	0.84 0.21 0.12 -0.09 0.30 0.25	0 of 18
S25L+V29H+W56N+T59Q+E61L	0.61 0.56 0.22 0.27 0.27 0.43	2 of 18 (3.46)
S25V+V29F+W56N+T59Q	-0.08 -0.28 -0.33 -0.35 -0.18 -0.03	1 of 18 (2.89)
S25L+S33Q+S38N+W56D	-0.30 -0.52 -0.63 -0.79 -0.68 -0.54	0 of 18
S25V+W56N+A57G	-0.17 -0.24 -0.16 -0.29 -0.26 -0.09	0 of 18
S25L+S38N+W56E+E61C	0.15 0.18 0.04 0.11 0.02 0.25	2 of 18 (2.51)
S25L+V29M+W56N+E61M+S62K	-0.02 0.08 -0.03 -0.05 -0.01 0.07	0 of 18
S25V+S26Y+V29N+W56N	-0.09 -0.16 -0.15 -0.25 -0.14 0.01	1 of 18 (2.98)
S25L+S26Q+S38N+W56N	-0.41 -0.46 -0.51 -0.57 -0.51 -0.31	3 of 18 (2.76)
S25L+S26Q+W56G+S62V	-0.25 -0.43 -0.47 -0.59 -0.49 -0.36	0 of 18
W56D+T59Q	0.23 0.50 0.27 0.22 0.16 0.37	1 of 18 (2.45)
S25L+S26Q+V29E+L30P+W56N+T59Q	0.21 -0.09 -0.01 -0.14 0.06 0.38	2 of 18 (1.74)
S25L+V29N+L30P+W56N	0.63 0.43 0.10 0.17 -0.03 0.22	2 of 18 (3.04)
S25L+W56D+S62Q	0.14 -0.13 -0.13 -0.26 -0.01 0.07	5 of 18 (2.57)
S25L+S26A+V29W+W56E	-0.06 -0.20 -0.37 -0.59 -0.30 -0.10	2 of 18 (2.22)
S25L+S26Q+W56N+E61M+S62M	0.11 0.34 -0.05 0.12 0.23 -0.04	0 of 18
S25L+S26Q+V29E+W56E+T59K	0.34 0.31 0.48 0.07 0.23 0.48	0 of 18
S25L+W56D+T59Q+E61L	-0.17 -0.16 -0.40 -0.37 -0.23 -0.22	1 of 18 (2.94)
S25V+Y31M+W56D	-0.15 -0.62 -0.53 -0.66 -0.28 -0.05	0 of 18
S25L+V29E+L30P+W56N+E61L	-0.11 -0.08 -0.08 -0.14 -0.18 -0.01	2 of 18 (2.52)

Repeated from above, the 6 best binders with a signal in all replicates:

changes	replicates, log10 nM	control signals
S25L+S33Q+S38N+W56D	-0.30 -0.52 -0.63 -0.79 -0.68 -0.54	0 of 18
S25V+V29E+W56N	-0.23 -0.57 -0.46 -0.61 -0.72 -0.37	3 of 18 (2.66)
S25L+S26Q+S38N+W56N	-0.41 -0.46 -0.51 -0.57 -0.51 -0.31	3 of 18 (2.76)
S25L+S26Q+W56G+S62V	-0.25 -0.43 -0.47 -0.59 -0.49 -0.36	0 of 18
S25L+V29F+W56N+S62Q	-0.35 -0.46 -0.48 -0.37 -0.54 -0.30	1 of 18 (3.21)
S25V+Y31M+W56D	-0.15 -0.62 -0.53 -0.66 -0.28 -0.05	0 of 18

Source: Li et al. 2023 (doi:10.1038/s41467-023-39022-2), MIT Lincoln Laboratory and A-Alpha Bio; data file from the FLAb repository.